According to PubChem BioAssay AID624168 (Sanford-Burnham Center for Chemical Genomics, 2012):
Only a part is listed here, and it is no random draw. Calls of active or inactive are those of the source.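 Rule for the calls: active = activation of at least 8% versus controls, or a plate z-score of at least 8; inactive = the rest.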

test: activators of alpha-DG glycosylation, primary screen, uHTS, Pro5-aDG cells, AlphaScreen (AID 624168); details: alpha-DG glycosylation AlphaScreen (IIH6), at 10 µM, stronger effect = higher value, 0% Pro5, 100% B10-LARGE cell signal;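 note: Pro5 are CHO cells carrying HIG-tagged alpha-DG that lacks glycosylation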

Row | Structure (SMILES) | activation
1 | O=C(NCC1(N2CCOCC2)CCCCC1)c1cc(=O)[nH]c2ccccc12 | inactive: -0.2%
2 | COc1cc(C(=O)NCC2(N3CCCCC3)CCCCC2)ccc1OC(F)F | inactive: -0.1%
3 | CCCCn1nnnc1C(c1cccc2ccccc12)N1CCC(n2c(=O)[nH]c3ccccc32)CC1 (stereo unspecified) | inactive: 0.2%
4 | COc1ccc(NC2CCN(C(=O)OC(C)(C)C)CC2)cc1 | inactive: -0.4%
5 | CC(C)c1ccc(C(=O)NCC2(N3CCOCC3)CCCCC2)cc1 | inactive: 0%
6 | CN1CCN(CCOC(=O)C(O)(c2ccccc2)c2ccccc2)CC1 | inactive: 0.3%
7 | O=C(NCC1(N2CCCCC2)CCCCC1)c1cccc(C(F)(F)F)c1 | inactive: 0%
8 | CCN1CCC(Nc2ccc(Cl)cc2)CC1 | inactive: -0.2%
9 | N#CC1(Nc2ccccc2)CCN(CCc2ccccc2)CC1 | inactive: 0.1%
10 | O=c1[nH]c2ccccc2n1C1CCN(C(c2ccccc2OC(F)(F)F)c2nnnn2C2CCCC2)CC1 (stereo unspecified) | inactive: -0.4%
11 | CSc1ccc(C(=O)NCC2(N3CCOCC3)CCCCC2)cc1 | inactive: -0.2%
12 | O=C(NCC1(N2CCCCC2)CCCCC1)c1cccc([N+](=O)[O-])c1 | inactive: -0.4%
13 | CC(C)(C)n1nnnc1C(c1ccccc1OC(F)(F)F)N1CCC(n2c(=O)[nH]c3ccccc32)CC1 (stereo unspecified) | inactive: -0.3%
14 | O=C(NCC1(N2CCCCC2)CCCCC1)c1ccc(OC(F)F)cc1 | inactive: 0%
15 | COc1ccc(C(c2nnnn2C2CCCC2)N2CCC(n3c(=O)[nH]c4ccccc43)CC2)cc1 (stereo unspecified) | inactive: -0.2%
16 | Cc1ccc(C(=O)NCC2(N(C)C)CCCCC2)o1 | inactive: -0.1%
17 | CCCOc1ccc(C(=O)NCC2(N(C)C)CCCCC2)cc1OC | inactive: -0.1%
18 | O=C(NCC1(N2CCCCC2)CCCCC1)c1cncc(Br)c1 | inactive: -0.3%
19 | CN1CCC(Nc2cccc(F)c2)CC1 | inactive: 0%
20 | COc1cc(OC)c(C(=O)NCC2(N(C)C)CCCCC2)cc1OC | inactive: -0.2%
21 | CCC(c1nnnn1C(C)(C)C)N1CCC(n2c(=O)[nH]c3ccccc32)CC1 (stereo unspecified) | inactive: -0.2%
22 | O=C(NCC1(N2CCOCC2)CCCCC1)c1cc(F)c(F)cc1Cl | inactive: 0.2%
23 | CCCCn1nnnc1C(c1ccnc2ccccc12)N1CCC(n2c(=O)[nH]c3ccccc32)CC1 (stereo unspecified) | inactive: -0.1%
24 | CC(C)c1ccc(NC2CCN(C(=O)OC(C)(C)C)CC2)cc1 | inactive: -0.2%
25 | CCCCn1nnnc1C(c1ccccc1OC(F)(F)F)N1CCC(n2c(=O)[nH]c3ccccc32)CC1 (stereo unspecified) | inactive: 0.2%
26 | COc1ccc(CN(CCCl)CCCl)cc1Cl | inactive: -0.4%
